According to US20230348453A1, “HALOGENATED-HETEROARYL AND OTHER HETEROCYCLIC KINASE INHIBITORS, AND USES THEREOF” (iOmx Therapeutics AG, priority 2020, published 2023):

Legend:
SRC (GST-HIS-tag) = SRC (GST-HIS-tag) (Homo sapiens (Human), UniProt P12931); type: biochemical
[1] = system: SIK3 WT and KO MC38 clones; experiment: TNF-mediated killing of SIK3 wildtype vs SIK3 knockout MC38 clones (CTG); type: cell-based, mouse; details: sub-optimal TNF (<10 ng/ml), 72 h

Q: What does the source list for Cc1nc(Nc2ncc(C(=O)Nc3c(C)csc3Cl)s2)cc(N2CCN(CCO)CC2)n1 [Compound C7, N-(2-chloro-4-methylthiophen-3-yl)-2-((6-(4-(2-hydroxyethyl)piperazin-1-yl)-2-methylpyrimidin-4-yl)amino)thiazole-5-carboxamide]?
A: IC50 (SRC (GST-HIS-tag)): < 1.5 nM; TNF-mediated killing in SIK3 WT vs KO MC38 clones [1]: induced TNF-mediated killing only in SIK3 WT clones
